Source: patent US20020160011A1, “ADJUVANT COMPOSITIONS FOR VACCINES” (priority 1997, published 2002)

Experiment: Ability of other cytokines to enhance the effect of the QS21/MPL adjuvant
Details: cytokine added in place of IL-12

Question: Which “enhancement of the effect of the QS21/MPL adjuvant” value does the source give for “IL-2: other cytokine tested with the QS21/MPL adjuvant” here?
Answer: unable to enhance
